Source: patent US20220018849A1, “SERINE HYDROLASE PROFILING ASSAY IN BIOTHERAPEUTICS” (Merck Sharp & Dohme Corp., priority 2020, published 2022)

System: serine hydrolases
Experiment: Activity-based chemical proteomics approach (fluorophosphonate probe enrichment, LC-MS/MS)
Conditions: HCCF sample from mAb1; compared with DMSO or control probe
Method: Harvest cell culture fluid (HCCF) and products from the first ion-exchange column (IEXP)) in downstream purification were used for activity-based proteomics testing. HCCF from Chinese hamster ovary (CHO) cells from fed-batch production of mAbs was diluted with 50 mM Tris (pH 8) to 2 mg/mL. IEXP samples were diluted to 10 mg/mL. Fluorophosphonate (FP)-containing probes were dissolved in dirnethyl sulfoxide (DMSO) to make 0.1 mM stock solution. For each HCCF or IEXP sample (500 μL), 20 μL of chemical probes or control DMSO was added to make a final mix concentration of 2 μM. All samples were incubated at room temperature for 2 hours with constant mixing on a rotator. After reaction, to each sample was added 1000 μL of ice-cold methanol/acetone (50:50) on ice for 30 minutes to remove free probes. The precipitated proteins were collected via centrifugation at 20,000 g for 15 minutes at 4° C. The pellet was washed with 1 mL of ice-cold methanol/acetone solution once and dried under N2 gas. The remaining pellet was re-dissolved in 1 ml of sample suspension buffer (2M Urea, 1% SDS, 50 mM Tris, pH 8). For each sample, 60 μL of Pierce™ agarose beads were added before incubation at room temperature for 1 hour while constantly mixing on a rotator. […]

SMILES: CCOP(=O)(F)CCCCCCCCCC(=O)NCCCCCNC(=O)CCCC[C@@H]1SC[C@@H]2NC(=O)N[C@@H]21 (stereo partly shown)
- number of known lipases and esterases combined significantly enriched: More than 10
